Laboratory results: US11046697B2, “Compounds and compositions useful for treating disorders related to NTRK” (BLUEPRINT MEDICINES CORPORATION, priority 2015, dated 2021)
pIC50: −log10 of the molar value.

The chains behind the UniProt entries cited, without tags or fusion partners. Residues count along the entry.
UniProt P04629, 440-796 limits assumed: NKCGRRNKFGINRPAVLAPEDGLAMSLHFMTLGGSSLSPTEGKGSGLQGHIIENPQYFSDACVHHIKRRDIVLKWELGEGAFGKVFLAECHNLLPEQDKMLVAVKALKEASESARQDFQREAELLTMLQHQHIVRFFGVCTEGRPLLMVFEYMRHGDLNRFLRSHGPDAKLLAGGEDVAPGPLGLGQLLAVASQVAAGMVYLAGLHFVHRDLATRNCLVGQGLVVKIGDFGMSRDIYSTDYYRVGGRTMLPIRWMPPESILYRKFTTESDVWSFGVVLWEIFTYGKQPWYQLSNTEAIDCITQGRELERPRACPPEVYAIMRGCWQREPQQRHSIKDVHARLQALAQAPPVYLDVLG

Columns and labels:
[1] = biological target: wild type NTRK1 enzyme (Homo sapiens, UniProt P04629); experiment: NTRK1 Wild Type Assay at 1 mM ATP; type: biochemical; settings: read-out: Enz NTRK1 IC50
[2] = test system: KM12 Cliff (G595R) cell line; experiment: NTRK G595R mutant cellular assay (CellTiter-Glo growth inhibition); type: cell-based; settings: read-out: KM12 (G595R) IC50, 72 hr
[3] = test system: KM12 wild type colon carcinoma cell line harboring the TPM3-NTRK1 fusion protein; experiment: NTRK wild type cellular assay (CellTiter-Glo growth inhibition); type: cell-based; settings: read-out: KM12 (WT) IC50, 72 hr

| Structure (SMILES) | pIC50 [1] | pIC50 [2] | pIC50 [3] |
| --- | --- | --- | --- |
| CN(Cc1cc(F)ccc1C#N)C(=O)c1n[nH]c2ncnc(N[C@@H]3CCOC[C@H]3O)c12 | 7.00 to 8.00 | 7.00 to 8.00 | 7.00 to 8.00 |
| O=C(c1n[nH]c2ncnc(N[C@@H]3CC[C@@H](O)[C@H]3O)c12)N1C[C@@H](F)C[C@@H]1c1cncc(F)c1 | > 8.00 | 7.00 to 8.00 | 7.00 to 8.00 |
| COc1ccc(F)cc1CN(C)C(=O)c1n[nH]c2ncnc(N[C@@H]3CC[C@@H](O)[C@H]3O)c12 | > 8.00 | 7.00 to 8.00 | 7.00 to 8.00 |
| O=C(c1n[nH]c2ncnc(N[C@@H]3CC[C@@H](O)[C@H]3O)c12)N1CCC[C@@H]1c1cc(F)cc(F)c1F | > 8.00 | > 8.00 | 7.00 to 8.00 |
| CCN(Cc1cc(F)ccc1F)C(=O)c1n[nH]c2ncnc(N[C@@H]3COCC[C@H]3O)c12 | 7.00 to 8.00 | 6.00 to 7.00 | 7.00 to 8.00 |
| CN(Cc1cc(F)ccc1F)C(=O)c1n[nH]c2ncnc(N[C@@H]3COC[C@@H](O)[C@H]3O)c12 | 7.00 to 8.00 | 7.00 to 8.00 | 7.00 to 8.00 |
| COC(=O)[C@@H]1C[C@@H](Nc2ncnc3[nH]nc(C(=O)NCc4cc(F)ccc4F)c23)[C@@H](O)[C@H]1O | 7.00 to 8.00 | 6.00 to 7.00 | 7.00 to 8.00 |
| CC(C)(O)[C@H]1C[C@@H](O)[C@H](Nc2ncnc3[nH]nc(C(=O)N4C[C@@H](F)C[C@@H]4c4cccc(F)c4)c23)C1 | > 8.00 | > 8.00 | > 8.00 |
| O=C(NCc1cc(F)cc(Cl)c1Cl)c1n[nH]c2ncnc(N[C@@H]3COCC[C@H]3O)c12 | 7.00 to 8.00 | 6.00 to 7.00 | 6.00 to 7.00 |
| N#C[C@H]1C[C@H](c2cc(F)ccc2F)N(C(=O)c2n[nH]c3ncnc(N[C@@H]4COC[C@H]4O)c23)C1 | 7.00 to 8.00 | 6.00 to 7.00 | 6.00 to 7.00 |
| CN(Cc1cc(F)ccc1C#N)C(=O)c1n[nH]c2ncnc(N[C@@H]3CCC[C@H]3O)c12 | > 8.00 | > 8.00 | > 8.00 |
| CN(Cc1cc(F)ccc1C#N)C(=O)c1n[nH]c2ncnc(N[C@@H]3CCC[C@@H](O)[C@H]3O)c12 | > 8.00 | 7.00 to 8.00 | 7.00 to 8.00 |
| O=C(NCc1cc(F)ccc1C(F)(F)F)c1n[nH]c2ncnc(N[C@@H]3CC[C@@H](O)[C@H]3O)c12 | 7.00 to 8.00 | 6.00 to 7.00 | 6.00 to 7.00 |
| O=C(c1n[nH]c2ncnc(N[C@@H]3CC[C@@H](O)[C@H]3O)c12)N1C[C@@H](F)C[C@@H]1c1cccc(F)c1 | > 8.00 | > 8.00 | > 8.00 |
| CN(C)C(=O)[C@H]1C[C@@H](O)[C@H](Nc2ncnc3[nH]nc(C(=O)NCc4cc(F)ccc4F)c23)C1 | > 8.00 | 7.00 to 8.00 | 7.00 to 8.00 |
| N#Cc1cc(F)cc([C@H]2C[C@H](F)CN2C(=O)c2n[nH]c3ncnc(N[C@@H]4C[C@@H](F)C[C@H]4O)c23)c1 (relative stereo) | > 8.00 | 7.00 to 8.00 | 7.00 to 8.00 |
| O=C(N[C@@H](c1cccc(F)c1)C(F)(F)F)c1n[nH]c2ncnc(N[C@@H]3CCC[C@H]3O)c12 | < 6.00 | < 6.00 | < 6.00 |
| COc1c(F)cc(F)cc1CN(C)C(=O)c1n[nH]c2ncnc(N[C@@H]3CC[C@@H](O)[C@H]3O)c12 | > 8.00 | 7.00 to 8.00 | 7.00 to 8.00 |
| O=C(c1n[nH]c2ncnc(N[C@@H]3CC[C@@H](O)[C@H]3O)c12)N1CC(F)(F)C[C@@H]1c1cncc(F)c1 | 6.00 to 7.00 | < 6.00 | 6.00 to 7.00 |
| COc1ncc(F)cc1CN(C)C(=O)c1n[nH]c2ncnc(N[C@@H]3CC[C@@H](O)[C@H]3O)c12 | 7.00 to 8.00 | 7.00 to 8.00 | 7.00 to 8.00 |
| CCN1C[C@@H](O)[C@H](Nc2ncnc3[nH]nc(C(=O)N[C@H](C)c4cc(F)ccc4F)c23)C1 | 6.00 to 7.00 | 6.00 to 7.00 | 6.00 to 7.00 |
| COC(=O)[C@@H]1C[C@@H](Nc2ncnc3[nH]nc(C(=O)NCc4cc(F)ccc4F)c23)[C@H](O)[C@@H]1O | < 6.00 | < 6.00 | < 6.00 |

| Structure (SMILES) | pIC50 [1] | pIC50 [2] | pIC50 [3] |
| --- | --- | --- | --- |
| CN(Cc1cc(F)ccc1Cl)C(=O)c1n[nH]c2ncnc(N[C@@H]3CC[C@@H](O)[C@H]3O)c12 | > 8.00 | 7.00 to 8.00 | > 8.00 |
| O=C(c1n[nH]c2ncnc(N[C@@H]3CC[C@@H](O)[C@H]3O)c12)N1C[C@@H](F)C[C@@H]1c1cc(F)ccc1F | > 8.00 | > 8.00 | > 8.00 |
| O=C(c1n[nH]c2ncnc(N[C@@H]3COC[C@H]3O)c12)N1C[C@@H](F)C[C@@H]1c1cncc(F)c1 | 7.00 to 8.00 | 6.00 to 7.00 | 7.00 to 8.00 |
| O=C(c1n[nH]c2ncnc(N[C@@H]3CCC[C@H]3O)c12)N1C[C@@H](F)C[C@@H]1c1cc(F)ccc1F | > 8.00 | > 8.00 | > 8.00 |
| O=C(c1n[nH]c2ncnc(N[C@@H]3CCC[C@@H](O)[C@H]3O)c12)N1C[C@@H](F)C[C@@H]1c1cncc(F)c1 | > 8.00 | 7.00 to 8.00 | 7.00 to 8.00 |
| CN(Cc1cc(F)ccc1F)C(=O)c1n[nH]c2ncnc(N[C@H]3[C@H](O)[C@H](O)[C@@H]4C[C@@H]43)c12 | > 8.00 | > 8.00 | > 8.00 |
| N#Cc1cc(F)cc([C@H]2C[C@H](F)CN2C(=O)c2n[nH]c3ncnc(N[C@@H]4CCC[C@H]4O)c23)c1 | > 8.00 | > 8.00 | > 8.00 |
| O=C(N[C@H](c1cccc(F)c1)C(F)(F)F)c1n[nH]c2ncnc(N[C@@H]3CCC[C@H]3O)c12 | < 6.00 | < 6.00 | < 6.00 |
| O=C(c1n[nH]c2ncnc(N[C@@H]3CC[C@@H](O)[C@H]3O)c12)N1C[C@@H](F)C[C@@H]1c1cc(F)cnc1Cl | > 8.00 | > 8.00 | > 8.00 |
| O=C(c1n[nH]c2ncnc(N[C@@H]3COCC[C@H]3O)c12)N1CCC[C@@H]1c1cc(F)ccc1F | > 8.00 | 7.00 to 8.00 | 7.00 to 8.00 |
| COc1c(F)cc(F)cc1CNC(=O)c1n[nH]c2ncnc(N[C@@H]3CC[C@@H](O)[C@H]3O)c12 | 6.00 to 7.00 | 6.00 to 7.00 | 6.00 to 7.00 |
| CN(Cc1cc(F)cc(Cl)c1)C(=O)c1n[nH]c2ncnc(N[C@@H]3CC[C@@H](O)[C@H]3O)c12 | > 8.00 | 7.00 to 8.00 | 7.00 to 8.00 |
| O=C(c1n[nH]c2ncnc(N[C@@H]3CCC[C@@H](O)[C@H]3O)c12)N1C[C@@H](F)C[C@@H]1c1cc(F)cc(F)c1 | > 8.00 | > 8.00 | > 8.00 |
| O=C(c1n[nH]c2ncnc(N[C@@H]3C=C[C@@H](O)[C@H]3O)c12)N1C[C@@H](F)C[C@@H]1c1cccc(F)c1 | > 8.00 | 7.00 to 8.00 | 7.00 to 8.00 |
| CN(Cc1cc(F)ccc1C#N)C(=O)c1n[nH]c2ncnc(N[C@H]3[C@H](O)[C@H](O)[C@@H]4C[C@@H]43)c12 | > 8.00 | > 8.00 | 7.00 to 8.00 |
| CN(Cc1cc(Cl)ccc1C#N)C(=O)c1n[nH]c2ncnc(N[C@H]3[C@H](O)[C@H](O)[C@@H]4C[C@@H]43)c12 | > 8.00 | > 8.00 | > 8.00 |
| CN(Cc1cc(F)ccc1C#N)C(=O)c1n[nH]c2ncnc(N[C@@H]3CC[C@@H](O)[C@H]3O)c12 | > 8.00 | > 8.00 | 7.00 to 8.00 |
| O=C(NCc1cc(F)ccc1C(F)(F)F)c1n[nH]c2ncnc(N[C@@H]3COCC[C@H]3O)c12 | 7.00 to 8.00 | 6.00 to 7.00 | 6.00 to 7.00 |
| O=C(c1n[nH]c2ncnc(N[C@@H]3CCOC[C@H]3O)c12)N1C[C@@H](F)C[C@@H]1c1cc(F)ccc1F | > 8.00 | > 8.00 | > 8.00 |
| O=C(c1n[nH]c2ncnc(N[C@@H]3CCC[C@@H](O)[C@H]3O)c12)N1CCC[C@@H]1c1cc(F)ccc1F | > 8.00 | 7.00 to 8.00 | 7.00 to 8.00 |
| O=C(c1n[nH]c2ncnc(N[C@@H]3COC[C@@H](O)[C@H]3O)c12)N1C[C@@H](F)C[C@@H]1c1cc(F)ccc1F | > 8.00 | 7.00 to 8.00 | 7.00 to 8.00 |
